# According to PubChem BioAssay AID528 (NMMLSC, 2006):
# Chains of the proteins cited; added tags and fusions are not shown.
# UniProt P13612, whole entry, looked up: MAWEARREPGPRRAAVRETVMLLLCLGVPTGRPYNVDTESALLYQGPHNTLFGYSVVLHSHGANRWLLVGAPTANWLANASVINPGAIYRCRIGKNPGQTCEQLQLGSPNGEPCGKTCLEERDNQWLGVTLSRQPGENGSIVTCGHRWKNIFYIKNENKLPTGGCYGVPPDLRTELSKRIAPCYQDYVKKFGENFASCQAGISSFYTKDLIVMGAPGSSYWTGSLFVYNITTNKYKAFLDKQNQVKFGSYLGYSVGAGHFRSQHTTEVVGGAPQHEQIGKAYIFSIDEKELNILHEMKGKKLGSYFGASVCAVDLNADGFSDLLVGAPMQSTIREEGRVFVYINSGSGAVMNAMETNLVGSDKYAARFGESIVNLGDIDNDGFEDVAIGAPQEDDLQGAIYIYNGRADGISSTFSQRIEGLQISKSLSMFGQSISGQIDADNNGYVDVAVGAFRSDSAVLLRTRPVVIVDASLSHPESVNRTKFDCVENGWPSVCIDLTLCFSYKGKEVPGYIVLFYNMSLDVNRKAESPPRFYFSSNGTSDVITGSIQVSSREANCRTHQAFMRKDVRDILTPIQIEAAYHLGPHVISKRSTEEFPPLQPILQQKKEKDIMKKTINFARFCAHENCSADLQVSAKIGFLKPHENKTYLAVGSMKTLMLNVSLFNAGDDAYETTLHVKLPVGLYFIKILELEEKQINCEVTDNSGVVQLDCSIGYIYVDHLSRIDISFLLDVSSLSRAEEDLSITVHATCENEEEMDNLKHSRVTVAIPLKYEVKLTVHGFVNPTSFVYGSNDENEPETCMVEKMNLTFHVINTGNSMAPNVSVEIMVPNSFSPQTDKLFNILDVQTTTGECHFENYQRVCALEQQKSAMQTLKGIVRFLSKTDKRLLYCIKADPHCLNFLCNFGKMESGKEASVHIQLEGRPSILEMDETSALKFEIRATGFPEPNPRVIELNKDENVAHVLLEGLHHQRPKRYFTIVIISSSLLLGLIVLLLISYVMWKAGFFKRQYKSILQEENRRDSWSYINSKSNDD
# The entries are a selection whose mix differs from that of the whole data set. Inconclusive results are not listed. Calls of active or inactive are those of the source.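 Rule for the calls: active = fluorescent ligand binding to cells raised by more than 40% of the manganese-induced maximum; inconclusive = compound's own fluorescence above 85% of the ligand control signal; inactive = the rest.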
# Target: Integrin alpha-4 (Homo sapiens) (UniProt P13612)
# Experiment: enhancers of LDV-FITC binding to VLA-4 integrin, primary screen, Jurkat cells, flow cytometry (AID 528);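 note: 0% = ligand binding without compound and 100% = manganese-stimulated maximal binding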
# Settings: hits give high values, screened at 10 µM (by protocol)
row,SMILES,activation
1,CP(=S)(Nn1cnnc1)Oc1ccccc1 (stereo unspecified),inactive: 4%
2,Cc1ccccc1NP(C)(=O)Nc1ccccc1C,inactive: -4%
3,CP(=O)(Nc1ccc2c(c1)OCCO2)Oc1ccccc1 (stereo unspecified),inactive: 3%
4,CN(C)CCOC(=O)C(O)(c1ccccc1)C1CCCCC1 (stereo unspecified),inactive: 6.5%
5,CP(=O)(Nc1ccccn1)Oc1ccccc1 (stereo unspecified),inactive: 7%
6,Cc1nc2ccc3ccccc3c2o1.O=[N+]([O-])c1cc([N+](=O)[O-])c(O)c([N+](=O)[O-])c1,inactive: -13.5%
